Values quoted from earlier work as cited in patent US9233106B2, “Inhibition of beta-amyloid peptide aggregation” (CORNELL RESEARCH FOUNDATION, INC., priority 2006, dated 2016).

Conditions: conscious rats; cited from earlier work

COC(=O)C1C(O)CC2CCC1N2C (stereo not shown)
lowest daily dose required to elicit slight toxic manifestations: 298.2 ± 49.6 mg/kg
